These are literature values, as cited in patent US4874862A, “Process for preparing guanine derivatives” (Warner-Lambert Company, priority 1987, dated 1989).

This data set deals with PNP. As to conditions: Biochem. Pharm., 31 (2), 163 (1982); cited from earlier work.

As for `Nc1nc2nc(N)[nH]c2c(=O)[nH]1` [8-Aminoguanine], the PNP-activity entry is given as “reported to have PNP-activity”.
